Assay: Phase 1 clinical trial: treatment emergent adverse events
Conditions: Part A; MGTA-145 0.0075-0.3 mg/kg, n = 24

For “MGTA-145: CXCR2 agonist; truncated Gro-β with deletion of the first four N-terminal amino acids (SEQ ID NO: 2)”, the “Back pain / Musculoskeletal pain” value was 19 (79.2) n (%) and the “Subjects with any drug related TEAE” value was 19 (79.2) n (%).

From patent US20220401481A1, “DOSING REGIMENS FOR THE MOBILIZATION OF HEMATOPOIETIC STEM AND PROGENITOR CELLS” (Magenta Therapeutics, Inc., priority 2019, published 2022)
